{
  "sequences": {"note": "Sequences of proteins named here, by UniProt entry; tags and fusion partners are left off. Residues count along the entry.", "UniProt P28335, 33-458": "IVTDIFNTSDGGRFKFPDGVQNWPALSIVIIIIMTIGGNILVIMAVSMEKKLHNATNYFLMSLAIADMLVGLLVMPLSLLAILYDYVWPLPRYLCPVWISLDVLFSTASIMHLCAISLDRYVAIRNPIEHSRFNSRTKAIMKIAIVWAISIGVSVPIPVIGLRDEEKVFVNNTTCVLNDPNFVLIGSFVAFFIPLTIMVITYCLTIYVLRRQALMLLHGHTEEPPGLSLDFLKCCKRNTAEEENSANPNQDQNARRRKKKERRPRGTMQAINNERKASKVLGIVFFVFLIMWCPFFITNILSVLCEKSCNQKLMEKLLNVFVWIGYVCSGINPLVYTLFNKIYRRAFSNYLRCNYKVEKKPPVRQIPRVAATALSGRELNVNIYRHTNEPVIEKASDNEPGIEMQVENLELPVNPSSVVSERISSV"},
  "source": "patent US20060258739A1",
  "about": "“Dihydrobenzofuran derivatives and uses therof” (Wyeth, priority 2005, published 2006)",
  "key": {"human 5-HT2C receptor": {"biological_target": "human 5-HT2C receptor (Homo sapiens, UniProt P28335)", "conditions": "calcium mobilization, response as % of maximal 5-HT response"}, "[1]": {"biological_target": "T1, human 5-hydroxytryptamine-2C (h5-HT2C) receptor (Homo sapiens, UniProt P28335)", "T1 construct": "expressed in transfected cells; host or cells: CHO (Chinese Hamster Ovary) cells; membrane preparation", "assay": "[125I]DOI radioligand binding to membranes of CHO cells expressing the h5-HT2C receptor", "conditions": "displacement of [125I]DOI, CHO cell membranes, room temperature 60 min; read-out: Ki (95% confidence interval)"}},
  "note": "pEC50, pKi: −log10 of the molar value.",
  "data": [
    {"molecule": "Clc1cccc(N2CCNCC2)c1", "note": "[mCPP, meta-chlorophenylpiperazine]", "values": [
      {"measurement": "pEC50", "setting": "human 5-HT2C receptor", "value": 8.27},
      {"measurement": "pKi", "setting": "[1]", "value": 8.19}
    ]}
  ]
}
